Assay outcomes from PubChem.
Most compounds without a hit are left out; they make up all but 1.1% or so of the library.
TrxR1 substrate – is turned over as a substrate by rat TrxR1. O89049. purified TrxR1 substrate turnover, NADPH consumption readout. Potency, µM (titrated, usually from 114 µM). 390,000 compounds, 0.01% hits. AID 588456; further: nearly all actives have a fitted effect of over 50% in size
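Rat TrxR1, dispensed at 90 nM, was prereduced with 400 uM NADPH (final) for 5 min at ~22 deg C, then incubated with compound 15 min before 400 uM selenite. A first-read NADPH fluorescence drop versus no-compound background flagged substrates.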
GALK inh – inhibitors of human galactokinase; Purified GALK, Kinase-Glo residual ATP luminescence; Potency, µM (titrated, usually from 57.5 µM), most hits filed as inhibitors; 270,000 compounds, 0.007% hits
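ATP-depletion format; final 35 uM ATP, 100 uM D-galactose, 5 nM enzyme; pH 8.0 HEPES/Mg2+ buffer; 60 min RT; luminescence read 10 min after detection reagent.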
TrxR1 inh – inhibitors of rat thioredoxin reductase 1. 390,000 compounds, 1% hits. Potency, µM (series often up to 114 µM), most hits filed as inhibitors. O89049. recombinant rTrxR1, NADPH fluorescence consumption, selenite substrate. AID 588453; further: nearly all actives have a fitted effect of over 65% in size
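Rat TrxR1 (90 nM in the dispensed reagent) was pre-reduced with 400 uM NADPH for 5 min at room temperature, then incubated with compound for 15 min. After 400 uM selenite was added, NADPH fluorescence (Ex 340/Em 450 nm) was followed for 8 min.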
miR-21 reporter – miR-21 reporter, rising signal | HeLa miR-21 FLuc reporter, luciferase, 48 h | Potency, µM (doses to about 38.3 µM) | 340,000 tested, under 10 active | AID 2288; active = well fitted rising curve with a large enough effect; inconclusive = small, poorly fitted or top-dose-only effect; inactive = no such curve, though single readings can be large or run the other way;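 note: miR-21 action dims this reporter so a rising signal means less miR-21 action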
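HeLa cells stably expressing CMV-driven firefly luciferase with a downstream miR-21 binding sequence, endogenously expressing miR-21, were treated with titrations (up to about 40uM final) for 48 hours at 37 degree Celsius. Luciferase luminescence was read after lysis.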
PINK1 modulator – changes PINK1 expression. PINK1 immunofluorescence, high-content cytometry, 24 h. AID 624263. 410,000 compounds, 0.2% hits. Potency, µM (series often up to 76.6 µM), usual class: activators; active means well fitted activation curve with a large enough effect; inconclusive means small, poorly fitted or top-dose-only effect; cell line not stated here; further: nearly all actives have a fitted effect of over 65% in size
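Stable cell line, 250 cells/well, 12 h attachment; compounds pinned at 5 concentrations, 24 h; CCCP control. Fixed with nuclear dye, primary antibodies 12 h at 10 degrees C, secondary plus cell stain; laser-scanning cytometer read.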
Large screens that a line does not name were inactive. Unless noted, the call rests on the fitted dose curve; in most records, active means well fitted curve in the direction sought with a large enough effect; inconclusive means small, poorly fitted or top-dose-only effect, or another doubt; inactive means no such curve, though single readings can be large; an effect the other way counts as inactive or inconclusive.

c1cncc(OC2CCN(Cc3ccc4c(c3)CN(Cc3ccc5c(c3)OCCO5)CCO4)CC2)c1	none (no result: TrxR1 substrate, GALK inh, TrxR1 inh, miR-21 reporter)
CCCn1c(/C=C/c2ccco2)nc2ccccc21	TrxR1 inh 50µM
Clc1ccc(Cn2c(/C=C/c3ccco3)nc3ccccc32)cc1	TrxR1 inh 45µM
CCCCn1c(/C=C/c2ccco2)nc2ccccc21	TrxR1 inh 50µM
CCOCCc1nn2c(=O)cc(COC(=O)c3ccccc3NC(=O)c3cccs3)nc2s1	none (no result: GALK inh)
Cc1ccc(C(=O)Nc2cnn(-c3ccc(C(=O)N(C)Cc4n[nH]c5c4CCCC5)cc3)c2)c(C)c1	none (no result: TrxR1 substrate, GALK inh, TrxR1 inh, miR-21 reporter)
COc1cccc(CN2CCC3(CCC(CNC(=O)c4ccco4)O3)CC2)c1OC (stereo not drawn)	none (no result: TrxR1 substrate, GALK inh, TrxR1 inh, miR-21 reporter)
N#C/C(=C\c1coc2ccccc2c1=O)C(N)=S	none
N#C/C(=C\c1coc2ccc(O)cc2c1=O)C(=O)Nc1nc2ccccc2s1	GALK inh inconclusive, TrxR1 inh 14µM, PINK1 modulator inconclusive
Cc1ccc(CNC(=O)c2cc(C3CC3)nc3c2c(C)nn3-c2cccc(Cl)c2C)cc1	none (no result: GALK inh)
COc1cc(/C=C2\C(=O)ON=C2c2ccccc2)cc(OC)c1OC	TrxR1 inh 18µM
COc1cc(/C=C2/N=C(C3CCCCC3)OC2=O)cc(OC)c1OC	TrxR1 inh inconclusive
COc1cc(/C=C2\N=C(C)OC2=O)cc(OC)c1OC	TrxR1 inh 45µM
NC(=O)COc1ccccc1	none
COc1ccc(/C=C2/C(=O)ON=C2c2ccccc2)cc1OC	TrxR1 inh 32µM
NC(=O)COc1ccc(/C=C2\C(=O)ON=C2c2ccccc2)cc1	TrxR1 inh 28µM (no result: GALK inh, miR-21 reporter)
CCOc1cc(/C=C2/C(=O)ON=C2C)ccc1OCc1ccccc1	TrxR1 inh inconclusive
CCOc1cc(/C=C2\C(=O)ON=C2c2ccccc2)ccc1OC	TrxR1 inh 18µM
COc1ccc(/C=C2\C(=O)ON=C2c2ccccc2)cc1OC	TrxR1 inh 32µM
NCCCCC(N)C(=O)NC(Cc1ccc(O)cc1)C(=O)NC(CCCCN)C(=O)O (stereo not drawn)	none (no result: TrxR1 substrate, GALK inh, TrxR1 inh, miR-21 reporter)
Cc1cccc(N(Cc2ccccc2)C(=O)CCl)c1	TrxR1 inh 8.9µM, miR-21 reporter inconclusive
O=C(CCl)N(Cc1ccccc1)c1ccccc1	TrxR1 inh inconclusive, miR-21 reporter inconclusive
COc1ccc(N/C=C\C(=O)c2ccc(Br)cc2)cc1OC	PINK1 modulator 40µM
COc1cc2oc(=O)c(CC(=O)NCCc3ccccc3F)c(C)c2cc1OC	TrxR1 inh inconclusive (no result: GALK inh)
COc1ccc(CCNC(=O)Cc2c(C)c3cc(OC)c(OC)cc3oc2=O)cc1	none (no result: GALK inh)
COc1ccccc1CCNC(=O)Cc1c(C)c2cc(Cl)c(O)cc2oc1=O	TrxR1 inh 79µM (no result: GALK inh)
Cc1c(CC(=O)NCCc2ccccc2F)c(=O)oc2cc(O)c(Cl)cc12	TrxR1 inh 71µM (no result: GALK inh)
CC(C)(C)n1ncc2c(=O)n(Cc3cccc(-c4cccs4)c3)cnc21	none (no result: GALK inh, miR-21 reporter, PINK1 modulator)
COc1ccc(C2C(C#N)=C(N)N(c3cccnc3)C3=C2C(=O)CC(C)(C)C3)cc1OC (stereo not drawn)	TrxR1 inh 18µM (no result: GALK inh)
COc1ccc(N2C(N)=C(C#N)C(c3cccnc3)C3=C2CC(C)(C)CC3=O)cc1 (stereo not drawn)	TrxR1 inh inconclusive
COc1ccc(-c2nc3ccc(NC(=O)CO)cc3c(=O)n2Cc2cccc(Cl)c2)cc1COc1ccc(NC(C)=O)cc1	TrxR1 inh inconclusive (no result: GALK inh, miR-21 reporter)
COc1ccc(-c2nc3ccc(NC(C)=O)cc3c(=O)n2Cc2ccccc2)cc1COc1ccc(NC(C)=O)cc1	TrxR1 inh 20µM (no result: GALK inh, miR-21 reporter)
N#C/C(=C/c1ccc(N2CCCCC2)o1)C(=O)Nc1ccc(Cl)cc1	PINK1 modulator 13µM
N#C/C(=C/c1ccc(N2CCCCC2)o1)C(=O)Nc1ccc2ccccc2c1	TrxR1 inh inconclusive, PINK1 modulator 7.1µM
N#C/C(=C\c1ccc(N2CCOCC2)o1)C(=O)Nc1ccc(O)cc1	PINK1 modulator inconclusive
COc1ccc(Cc2c(C)nn(-c3nc(C)c(C(=O)Nc4cccc(C(C)=O)c4)s3)c2C)cc1	none (no result: GALK inh)
COc1ccccc1CN1CCC2(CC1)c1ccccc1[C@@H](NC(=O)c1ccco1)[C@@H]2OC	none (no result: TrxR1 substrate, GALK inh, TrxR1 inh, miR-21 reporter)
O=S(=O)(NCCNc1ncc(C(F)(F)F)cc1Cl)C(F)(F)F	PINK1 modulator 40µM
O=C1C=CC(=O)N1CCNc1ncc(C(F)(F)F)cc1Cl	TrxR1 inh 2µM, miR-21 reporter inconclusive
CCCNC(=O)c1nnsc1S(=O)(=O)c1ccc(Cl)cc1	TrxR1 inh inconclusive, miR-21 reporter inconclusive
CNC(=O)c1nnsc1S(=O)c1ccc(Cl)cc1 (stereo not drawn)	TrxR1 inh 0.35µM, miR-21 reporter inconclusive
CCCNC(=O)c1nnsc1S(=O)c1ccc(Cl)cc1 (stereo not drawn)	TrxR1 inh 0.56µM, miR-21 reporter inconclusive
O=C(N/N=C/c1cnc(N2CCCCC2)s1)c1ccc(C(F)(F)F)cc1	PINK1 modulator 7.1µM
CC1CN(c2ncc(/C=N/NC(=O)c3ccccc3O)s2)CC(C)O1 (stereo not drawn)	none
COc1ccc(C(=O)/C=C/C(=O)N(CC(=O)NC2CCCCC2)Cc2ccc(F)cc2)c(O)c1	TrxR1 inh 4µM
COc1ccc(C(=O)/C=C/C(=O)N(CC(=O)NCCC(C)C)Cc2cccs2)c(O)c1	TrxR1 inh 2.8µM
COc1cc2c(cc1OC)C(c1ccccc1)N(C(=O)CCl)CC2 (stereo not drawn)	TrxR1 inh 4.5µM
COc1ccc2c(CNC3CCCCCC3)c(C(=O)O)n(Cc3ccc(C)cc3)c2c1	none (no result: GALK inh)
